# Biological target: Receptor-type tyrosine-protein kinase FLT3 (Homo sapiens, UniProt P36888)
# Protein sequences, listed by entry. Tags and fused reporters are not part of them.
# UniProt P36888, whole entry: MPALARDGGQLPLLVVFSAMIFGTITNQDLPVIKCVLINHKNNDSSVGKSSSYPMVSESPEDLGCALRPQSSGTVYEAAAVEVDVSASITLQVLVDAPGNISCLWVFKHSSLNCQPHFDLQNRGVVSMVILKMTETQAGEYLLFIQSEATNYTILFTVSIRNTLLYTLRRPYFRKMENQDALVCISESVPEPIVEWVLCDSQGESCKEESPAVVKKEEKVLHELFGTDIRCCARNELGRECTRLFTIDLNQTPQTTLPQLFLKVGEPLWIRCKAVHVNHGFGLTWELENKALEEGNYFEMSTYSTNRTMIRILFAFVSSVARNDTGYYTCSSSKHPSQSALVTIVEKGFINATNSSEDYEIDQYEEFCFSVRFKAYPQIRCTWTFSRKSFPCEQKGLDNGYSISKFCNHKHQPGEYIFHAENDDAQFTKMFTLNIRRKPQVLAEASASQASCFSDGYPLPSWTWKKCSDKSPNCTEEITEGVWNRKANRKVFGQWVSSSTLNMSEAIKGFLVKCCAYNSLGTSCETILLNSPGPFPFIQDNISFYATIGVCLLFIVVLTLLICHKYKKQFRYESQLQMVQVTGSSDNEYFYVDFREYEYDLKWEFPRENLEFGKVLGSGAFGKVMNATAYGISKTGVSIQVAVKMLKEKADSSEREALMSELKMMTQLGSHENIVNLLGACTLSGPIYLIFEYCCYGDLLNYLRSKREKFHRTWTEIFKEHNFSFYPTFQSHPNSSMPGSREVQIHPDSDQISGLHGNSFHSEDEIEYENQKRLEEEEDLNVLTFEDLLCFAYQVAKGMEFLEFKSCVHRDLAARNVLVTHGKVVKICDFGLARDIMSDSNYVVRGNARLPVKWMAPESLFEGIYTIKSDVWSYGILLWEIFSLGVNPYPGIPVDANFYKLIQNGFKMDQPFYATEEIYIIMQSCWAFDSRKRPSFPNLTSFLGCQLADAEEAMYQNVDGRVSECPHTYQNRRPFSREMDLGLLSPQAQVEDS
# Assay: Reversible inhibition of FLT3 (unknown origin) assessed as dissociation constant
row,K [min⁻¹],SMILES
1,0.103,C=CC(=O)NC/C=C/c1cc(OCCCN2CCOCC2)cc(O)c1C(=O)OC(C)C
2,0.118,C=CS(=O)(=O)NC/C=C/c1cc(OC)cc(O)c1C(=O)OC(C)C

# — ChEMBL document CHEMBL3352474, “Design, synthesis and biological evaluation of FLT3 covalent inhibitors with a resorcylic acid core” (Bioorg Med Chem, 2014)
